Results as given in BindingDB's records for doi:10.1016/j.bmcl.2003.08.064 (Abbott Laboratories, 2003).

Biological target: T1, Tyrosine-protein phosphatase non-receptor type 1 [1-298] (Homo sapiens, UniProt P18031)
T1 construct: 1-298
T1 sequence (P18031 whole entry): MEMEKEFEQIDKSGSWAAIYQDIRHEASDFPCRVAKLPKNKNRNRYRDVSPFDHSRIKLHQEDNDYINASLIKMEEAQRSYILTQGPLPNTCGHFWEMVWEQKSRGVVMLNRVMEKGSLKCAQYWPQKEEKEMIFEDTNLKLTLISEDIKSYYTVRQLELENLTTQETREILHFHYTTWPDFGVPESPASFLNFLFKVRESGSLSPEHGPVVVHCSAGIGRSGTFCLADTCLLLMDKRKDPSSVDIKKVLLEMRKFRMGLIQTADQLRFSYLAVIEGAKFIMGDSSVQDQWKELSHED
Test: PTP1B and TCPTP Inhibition Assay
Settings: pH 7.5; 22 °C

## CCc1cc(CC(NC(C)=O)C(=O)NCCCCOc2cccc(O)c2C(=O)OC)ccc1N(C(=O)C(=O)O)c1ccccc1C(=O)O (stereo unspecified)
  Ki: 18 µM
